Activity calls are given as the source filed them. No cut-off for these calls is given here.
Experiments:
[1] = target: Oxysterols receptor LXR-beta (Homo sapiens) (UniProt P55055); experiment: Agonist activity at NR1H2 (unknown origin) at 1 uM
[2] = target: Nuclear receptor subfamily 2 group E member 1 (Homo sapiens) (UniProt Q9Y466); experiment: Antagonist activity at NR2E1 (unknown origin) at 1 uM
[3] = target: Steroidogenic factor 1 (Homo sapiens) (UniProt Q13285); experiment: Antagonist activity at NR5A1 (unknown origin) at 1 uM
[4] = target: T1, Peroxisome proliferator-activated receptor delta (Homo sapiens) (UniProt Q03181); experiment: Inverse agonist activity at NR1C2 (unknown origin) at 1 uM
T1 sequence (whole entry): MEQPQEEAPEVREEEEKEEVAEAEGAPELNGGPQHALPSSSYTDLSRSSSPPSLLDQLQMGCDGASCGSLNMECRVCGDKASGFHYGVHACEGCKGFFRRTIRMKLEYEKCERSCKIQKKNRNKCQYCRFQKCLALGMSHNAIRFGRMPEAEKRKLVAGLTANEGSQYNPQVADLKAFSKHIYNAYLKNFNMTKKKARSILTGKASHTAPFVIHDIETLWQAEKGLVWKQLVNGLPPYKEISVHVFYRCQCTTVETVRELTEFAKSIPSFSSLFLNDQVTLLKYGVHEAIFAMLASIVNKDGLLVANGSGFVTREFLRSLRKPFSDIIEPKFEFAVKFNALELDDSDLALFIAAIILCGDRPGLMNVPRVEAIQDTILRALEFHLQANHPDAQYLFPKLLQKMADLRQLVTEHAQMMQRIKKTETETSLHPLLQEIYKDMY

By UniProt entry, the sequences of proteins in these tests, tags left out. Where a name states a change or a piece, a line headed by the entry shows the natural chain unless it says otherwise.
UniProt P55055, whole entry: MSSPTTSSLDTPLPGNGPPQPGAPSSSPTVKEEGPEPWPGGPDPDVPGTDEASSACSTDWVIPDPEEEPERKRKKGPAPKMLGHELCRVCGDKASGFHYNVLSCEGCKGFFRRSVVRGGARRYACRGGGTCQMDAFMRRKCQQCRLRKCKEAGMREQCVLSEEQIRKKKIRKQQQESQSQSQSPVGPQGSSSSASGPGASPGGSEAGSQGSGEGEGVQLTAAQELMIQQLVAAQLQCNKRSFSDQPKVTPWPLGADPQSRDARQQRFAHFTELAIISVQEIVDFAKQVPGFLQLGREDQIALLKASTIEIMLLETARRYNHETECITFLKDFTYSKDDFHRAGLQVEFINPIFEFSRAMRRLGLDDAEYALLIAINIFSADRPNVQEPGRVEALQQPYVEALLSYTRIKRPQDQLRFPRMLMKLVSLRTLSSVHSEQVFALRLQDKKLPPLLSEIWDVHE
UniProt Q9Y466: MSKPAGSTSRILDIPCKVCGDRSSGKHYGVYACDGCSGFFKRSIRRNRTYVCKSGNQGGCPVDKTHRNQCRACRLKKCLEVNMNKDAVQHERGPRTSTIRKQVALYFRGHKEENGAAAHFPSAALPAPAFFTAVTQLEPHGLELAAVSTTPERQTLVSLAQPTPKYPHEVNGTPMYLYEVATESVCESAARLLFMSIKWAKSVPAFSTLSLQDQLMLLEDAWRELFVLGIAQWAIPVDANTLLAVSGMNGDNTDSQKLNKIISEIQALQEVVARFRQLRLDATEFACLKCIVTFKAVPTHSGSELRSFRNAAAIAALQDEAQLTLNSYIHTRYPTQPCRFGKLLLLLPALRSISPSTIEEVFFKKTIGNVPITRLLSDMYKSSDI
UniProt Q13285, whole entry: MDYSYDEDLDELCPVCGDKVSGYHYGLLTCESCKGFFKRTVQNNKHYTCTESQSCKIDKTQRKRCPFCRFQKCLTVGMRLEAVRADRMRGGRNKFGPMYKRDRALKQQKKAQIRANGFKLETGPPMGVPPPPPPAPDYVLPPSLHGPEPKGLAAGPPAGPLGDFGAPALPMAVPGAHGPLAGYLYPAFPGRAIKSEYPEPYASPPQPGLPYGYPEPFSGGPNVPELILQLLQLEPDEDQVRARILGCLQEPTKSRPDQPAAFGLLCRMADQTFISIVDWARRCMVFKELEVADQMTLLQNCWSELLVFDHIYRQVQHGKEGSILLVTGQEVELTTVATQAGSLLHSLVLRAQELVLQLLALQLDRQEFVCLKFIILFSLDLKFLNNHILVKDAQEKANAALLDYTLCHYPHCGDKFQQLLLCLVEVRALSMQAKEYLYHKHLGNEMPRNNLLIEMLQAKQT
UniProt P10276, whole entry: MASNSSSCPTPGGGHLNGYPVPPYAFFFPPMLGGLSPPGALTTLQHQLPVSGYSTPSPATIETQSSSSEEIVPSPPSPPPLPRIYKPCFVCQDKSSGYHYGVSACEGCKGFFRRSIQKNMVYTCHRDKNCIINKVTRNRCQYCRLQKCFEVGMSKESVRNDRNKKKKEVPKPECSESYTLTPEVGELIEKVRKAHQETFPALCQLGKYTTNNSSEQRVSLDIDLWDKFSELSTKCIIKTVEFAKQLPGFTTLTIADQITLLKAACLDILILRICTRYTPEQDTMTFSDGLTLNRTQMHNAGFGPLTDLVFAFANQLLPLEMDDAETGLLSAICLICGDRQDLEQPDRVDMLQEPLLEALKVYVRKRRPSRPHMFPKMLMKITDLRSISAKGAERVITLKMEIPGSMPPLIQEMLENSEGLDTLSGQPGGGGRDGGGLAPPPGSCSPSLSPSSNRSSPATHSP
UniProt P13631, whole entry: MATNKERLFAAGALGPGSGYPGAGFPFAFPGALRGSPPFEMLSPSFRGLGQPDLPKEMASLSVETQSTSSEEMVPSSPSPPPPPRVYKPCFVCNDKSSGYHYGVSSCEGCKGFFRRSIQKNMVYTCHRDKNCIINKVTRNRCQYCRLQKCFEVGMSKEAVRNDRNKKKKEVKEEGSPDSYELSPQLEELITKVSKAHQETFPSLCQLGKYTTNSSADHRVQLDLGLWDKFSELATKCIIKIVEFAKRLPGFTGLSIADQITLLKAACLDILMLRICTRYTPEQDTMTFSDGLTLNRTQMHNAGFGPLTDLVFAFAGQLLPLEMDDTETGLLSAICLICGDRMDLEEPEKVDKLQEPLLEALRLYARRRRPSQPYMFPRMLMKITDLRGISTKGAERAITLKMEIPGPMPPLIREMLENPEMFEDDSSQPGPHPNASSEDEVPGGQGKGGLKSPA
UniProt P10826, whole entry: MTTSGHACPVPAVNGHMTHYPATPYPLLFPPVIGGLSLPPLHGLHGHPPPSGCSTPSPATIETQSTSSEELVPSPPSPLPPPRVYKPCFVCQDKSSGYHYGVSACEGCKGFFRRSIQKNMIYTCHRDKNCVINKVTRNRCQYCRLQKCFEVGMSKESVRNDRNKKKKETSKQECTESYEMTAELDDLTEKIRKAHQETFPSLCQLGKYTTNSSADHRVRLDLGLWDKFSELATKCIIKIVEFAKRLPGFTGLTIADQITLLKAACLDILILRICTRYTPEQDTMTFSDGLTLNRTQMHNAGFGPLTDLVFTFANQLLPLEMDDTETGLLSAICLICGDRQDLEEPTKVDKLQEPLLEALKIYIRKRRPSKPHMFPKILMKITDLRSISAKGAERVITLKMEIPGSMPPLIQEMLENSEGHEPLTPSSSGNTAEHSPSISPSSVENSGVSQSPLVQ
UniProt P22736, whole entry: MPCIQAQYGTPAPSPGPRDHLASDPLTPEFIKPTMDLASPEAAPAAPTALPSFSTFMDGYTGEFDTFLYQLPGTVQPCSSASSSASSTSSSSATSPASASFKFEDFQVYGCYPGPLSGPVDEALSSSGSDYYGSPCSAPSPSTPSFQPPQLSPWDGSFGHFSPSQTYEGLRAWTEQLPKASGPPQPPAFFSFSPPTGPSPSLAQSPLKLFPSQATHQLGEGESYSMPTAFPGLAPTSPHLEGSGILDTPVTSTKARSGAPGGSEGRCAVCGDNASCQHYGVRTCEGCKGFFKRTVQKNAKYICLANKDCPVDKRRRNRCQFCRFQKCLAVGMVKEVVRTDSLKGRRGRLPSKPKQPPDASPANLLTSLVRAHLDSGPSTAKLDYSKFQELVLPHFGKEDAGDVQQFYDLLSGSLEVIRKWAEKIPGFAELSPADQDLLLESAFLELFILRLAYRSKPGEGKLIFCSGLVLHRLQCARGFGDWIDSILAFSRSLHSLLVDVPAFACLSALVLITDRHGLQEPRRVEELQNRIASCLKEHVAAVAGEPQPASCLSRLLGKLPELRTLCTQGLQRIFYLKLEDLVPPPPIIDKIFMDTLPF

[5] = target: Retinoic acid receptor alpha (Homo sapiens) (UniProt P10276); experiment: Agonist activity at NR1B1 (unknown origin) at 1 uM
[6] = target: T2, Nuclear receptor subfamily 1 group D member 1 (Homo sapiens) (UniProt P20393); experiment: Agonist activity at NR1D1 (unknown origin) at 1 uM
T2 sequence (whole entry): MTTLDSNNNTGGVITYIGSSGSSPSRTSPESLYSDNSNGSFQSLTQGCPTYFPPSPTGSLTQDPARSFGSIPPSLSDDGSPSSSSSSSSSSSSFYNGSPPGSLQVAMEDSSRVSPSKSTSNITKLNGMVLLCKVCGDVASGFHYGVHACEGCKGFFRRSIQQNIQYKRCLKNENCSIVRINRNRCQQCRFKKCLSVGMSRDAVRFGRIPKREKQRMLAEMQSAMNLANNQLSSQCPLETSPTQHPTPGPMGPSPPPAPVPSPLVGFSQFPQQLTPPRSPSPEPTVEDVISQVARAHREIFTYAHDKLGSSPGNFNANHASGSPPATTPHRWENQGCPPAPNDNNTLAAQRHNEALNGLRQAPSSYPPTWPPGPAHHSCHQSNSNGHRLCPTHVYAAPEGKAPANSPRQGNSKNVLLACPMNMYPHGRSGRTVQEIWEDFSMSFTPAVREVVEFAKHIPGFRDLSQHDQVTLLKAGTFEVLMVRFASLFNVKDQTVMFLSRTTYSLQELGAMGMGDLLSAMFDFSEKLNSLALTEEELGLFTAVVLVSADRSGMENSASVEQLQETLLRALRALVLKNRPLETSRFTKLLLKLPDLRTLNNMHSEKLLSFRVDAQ

[7] = target: T3, Nuclear receptor subfamily 1 group D member 2 (Homo sapiens) (UniProt Q14995); experiment: Agonist activity at NR1D2 (unknown origin) at 1 uM
T3 sequence (whole entry): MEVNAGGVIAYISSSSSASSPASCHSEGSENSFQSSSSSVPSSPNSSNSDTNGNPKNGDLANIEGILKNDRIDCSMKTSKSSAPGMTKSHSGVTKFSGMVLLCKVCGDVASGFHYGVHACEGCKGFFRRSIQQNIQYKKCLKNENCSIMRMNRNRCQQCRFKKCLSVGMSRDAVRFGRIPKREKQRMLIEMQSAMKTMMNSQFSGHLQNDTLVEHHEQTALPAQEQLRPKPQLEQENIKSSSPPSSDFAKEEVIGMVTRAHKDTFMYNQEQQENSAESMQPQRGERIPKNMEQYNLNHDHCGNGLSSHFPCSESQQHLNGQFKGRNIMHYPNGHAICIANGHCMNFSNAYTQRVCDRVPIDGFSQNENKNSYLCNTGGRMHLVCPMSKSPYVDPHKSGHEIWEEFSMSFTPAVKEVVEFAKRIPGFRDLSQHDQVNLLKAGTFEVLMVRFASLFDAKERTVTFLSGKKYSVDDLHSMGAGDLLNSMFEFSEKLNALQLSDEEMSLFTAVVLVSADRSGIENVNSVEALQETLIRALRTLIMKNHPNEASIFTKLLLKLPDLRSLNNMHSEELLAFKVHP

[8] = target: Retinoic acid receptor gamma (Homo sapiens) (UniProt P13631); experiment: Antagonist activity at NR1B3 (unknown origin) at 1 uM
[9] = target: T4, Nuclear receptor subfamily 2 group C member 2 (Homo sapiens) (UniProt P49116); experiment: Agonist activity at NR2C2 (unknown origin) at 1 uM
T4 sequence (whole entry): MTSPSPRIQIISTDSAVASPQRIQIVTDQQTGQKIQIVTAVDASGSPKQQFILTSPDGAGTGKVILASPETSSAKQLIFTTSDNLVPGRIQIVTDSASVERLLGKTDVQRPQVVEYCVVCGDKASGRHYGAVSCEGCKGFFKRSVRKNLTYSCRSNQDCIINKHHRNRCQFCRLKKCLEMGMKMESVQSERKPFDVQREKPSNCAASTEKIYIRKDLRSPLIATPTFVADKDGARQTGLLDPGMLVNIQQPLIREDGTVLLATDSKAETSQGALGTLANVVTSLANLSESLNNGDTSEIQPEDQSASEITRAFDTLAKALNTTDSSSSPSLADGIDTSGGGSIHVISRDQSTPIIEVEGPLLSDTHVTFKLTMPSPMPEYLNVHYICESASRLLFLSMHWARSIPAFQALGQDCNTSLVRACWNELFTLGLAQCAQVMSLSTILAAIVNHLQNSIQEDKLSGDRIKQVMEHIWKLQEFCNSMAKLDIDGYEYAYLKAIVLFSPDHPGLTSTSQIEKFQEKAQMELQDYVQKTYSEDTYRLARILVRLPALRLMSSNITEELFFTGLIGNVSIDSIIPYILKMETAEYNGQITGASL

[10] = target: Retinoic acid receptor beta (Homo sapiens) (UniProt P10826); experiment: Inverse agonist activity at NR1B2 (unknown origin) at 1 uM
[11] = target: Nuclear receptor subfamily 4immunitygroup A member 1 (Homo sapiens) (UniProt P22736); experiment: Inverse agonist activity at NR4A1 (unknown origin) at 1 uM

- Activity [1]: inactive
- Activity [2]: inactive
- Activity [3]: inactive
- Activity [4]: inactive
- Activity [5]: inactive
- Activity [6]: inactive
- Activity [7]: inactive
- Activity [8]: inactive
- Activity [9]: inactive
- Activity [10]: inactive
- Activity [11]: inactive
SMILES: O=C(O)[C@@H]1C[C@H]1c1nc(-c2ccccc2)c(-c2cc(C(F)(F)F)cc(C(F)(F)F)c2)o1 (racemic)

Source: ChEMBL document CHEMBL5375987, “Structural Fusion of Natural and Synthetic Ligand Features Boosts RXR Agonist Potency” (J Med Chem, 2023)
